Source: EP0490410B1, “TXA2 Receptor and gene encoding the same” (SHIONOGI SEIYAKU KABUSHIKI KAISHA, priority 1990, dated 1992)

Sequences of proteins named here, by UniProt entry; tags and fusion partners are left off. A change or cut given only in a name is not applied to a line headed by its entry.
UniProt P21731, whole entry: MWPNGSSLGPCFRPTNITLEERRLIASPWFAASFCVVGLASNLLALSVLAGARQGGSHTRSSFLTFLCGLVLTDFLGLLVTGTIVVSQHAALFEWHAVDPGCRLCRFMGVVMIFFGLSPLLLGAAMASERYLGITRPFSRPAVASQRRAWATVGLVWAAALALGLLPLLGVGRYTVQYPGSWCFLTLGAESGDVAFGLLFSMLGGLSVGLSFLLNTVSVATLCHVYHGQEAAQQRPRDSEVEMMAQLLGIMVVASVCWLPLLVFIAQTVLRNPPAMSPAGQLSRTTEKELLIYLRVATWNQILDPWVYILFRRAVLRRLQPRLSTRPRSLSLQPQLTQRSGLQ

Target: human TXA2 receptor encoded by placenta cDNA clone HPL (SEQ ID NO: 1), expressed in COS-7 cells (Homo sapiens, UniProt P21731)
Assay: [3H]S-145 saturation binding to membranes of transfected COS-7 cells
Settings: read-out: dissociation constant, Kd, saturable binding, 20 mM Na-Mes, pH 6.4, 5 mM EDTA, tested as the radiolabelled form, tested form: tritium-labelled (24 Ci/mmol), label pos

Work on O=C(O)CCC/C=C\CC1C2CCC(C2)C1NS(=O)(=O)c1ccccc1 (stereo not shown) yielded a Kd of 1.2 nM.
